Laboratory results published in article PMC7394244 (Journal of medicinal chemistry, 2020).

Key:
[1] = tested on: P. falciparum 3D70087/N9; conditions: SCID mouse
[2] = tested on: P. falciparum 3D70087/N9; conditions: SCID mouse, cited from earlier work

Row | SMILES | tolerability ([1]; 50 mg/kg oral QD x4, both studies) | Blood AUCED90 ([1]; QD) [µg·h/mL] | ED90 ([1]; QD, 4 days oral, average of two studies) | ED90 ([2]; QD) | Blood AUCED90 ([2]; BID) [µg·h/mL] | ED90 ([2]; BID) | Blood AUCED90 ([2]; QD) [µg·h/mL] | Unbound blood AUC ([2]; QD) [µg·h/mL]
1 | Cc1c(Cc2ccc(C(F)(F)F)nc2)c[nH]c1C(=O)NC1CC1 [Compound 37] | well tolerated | ~9 | ~50 ^* (QD) mg/kg/day |  |  |  |  | 
2 | Cc1cc(Nc2ccc(C(F)(F)F)nc2)n2nc(C(C)(F)F)nc2n1 [DSM421, 2-(1,1-difluoroethyl)-5-methyl-N-(6-(trifluoromethyl)pyridin-3-yl)-[1,2,4]triazolo[1,5-a]pyrimidin-7-amine] |  |  |  | 2.6 (QD) mg/kg/day |  |  |  | 
3 | Cc1cc(Nc2ccc(S(F)(F)(F)(F)F)cc2)n2nc(C(C)(F)F)nc2n1 [Compound 1] |  |  |  | ~ 8 mg/kg/day and 8.1 (QD) mg/kg/day | 10.8 | 3.0 (BID) mg/kg/day | 16.7 | 0.023

“And” between values parts separate entries of the source, which are not always exact repeats. Equal entries are not always repeated. Where two headings read alike, the source gives them in different places. Marks after values point to notes of the source that are not given here.
